From patent US6908912B2, “Pyrithione biocides enhanced by zinc metal ions and organic amines” (priority 1999, dated 2005) come the findings set out here.

A short description of the series: Solubility and stability of concentrated mixtures of sodium pyrithione, ZnCl2 and organic amines (Example 55). The settings on record: mixture of NaPT 10.00, ZnCl2 1.74, organic amine(s) 60.50, water 27.76 weight %; room temperature.

Take 1-amino-2-propanol [Mixture 1A2P]: the “Appearance at 24 Hrs” value is reported as “S” and the “Appearance at 72 Hrs” value is recorded as “S”.

Regarding `NCCO` [MEA, monoethanolamine], the “Appearance at 24 Hrs” value was “S” and the “Appearance at 72 Hrs” value was “S”.
